Biological target: recombinant human DAAO (Homo sapiens, UniProt P14920)
Assay: Inhibition of recombinant human DAAO
Format: biochemical

The chains behind the UniProt entries cited, without tags or fusion partners. Where a name states a change or a piece, a line headed by the entry shows the natural chain unless it says otherwise.
UniProt P14920: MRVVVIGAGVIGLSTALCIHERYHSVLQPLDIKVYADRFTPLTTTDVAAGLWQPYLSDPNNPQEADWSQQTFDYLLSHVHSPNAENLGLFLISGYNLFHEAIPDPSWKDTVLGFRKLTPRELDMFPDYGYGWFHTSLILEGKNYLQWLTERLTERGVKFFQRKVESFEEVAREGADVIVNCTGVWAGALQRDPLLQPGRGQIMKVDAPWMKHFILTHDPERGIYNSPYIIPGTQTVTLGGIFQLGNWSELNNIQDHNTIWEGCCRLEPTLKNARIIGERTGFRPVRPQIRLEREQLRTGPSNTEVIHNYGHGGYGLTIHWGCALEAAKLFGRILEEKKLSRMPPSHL

IC50 | SMILES
< 0.1 µM | O=c1[nH]nc(SCc2ccc3cc(F)ccc3c2)nc1O [Compound 6m, 3-((6-fluoronaphthalen-2-yl)methylthio)-6-hydroxy-1,2,4-triazin-5(2H)-one]
< 0.1 µM | O=c1[nH]nc(SCc2ccc3c(c2)OCO3)nc1O [Compound 6o]

Reference: article PMC4816084 (Bioorganic & medicinal chemistry letters, 2016)
